Laboratory results taken from PMC3412876 (Chemical communications (Cambridge, England), 2011).

Settings: circular dichroism, 10% trifluoroethanol in phosphate buffered saline; estimated from mean residue ellipticity at 222 nm

Row | Structure (SMILES) | % Helicity [%]
1 | CC(C)C[C@H](NC(=O)[C@H](CC(C)C)NC(=O)[C@H](CCCCN)NC(=O)[C@H](Cc1c[nH]c2ccccc12)NC(=O)[C@H](CC(C)C)NC(=O)[C@H](CC(=O)O)NC(=O)[C@H](CO)NC(=O)[C@H](Cc1ccccc1)NC(=O)CN1C/C=C/CCC(=O)N[C@@H](CCC(N)=O)C(=O)N[C@@H](CCC(=O)O)C1=O)C(=O)N[C@@H](CO)C(N)=O [HBS α-helix 2] | 48
2 | CC(C)C[C@H](NC(=O)[C@H](CC(C)C)NC(=O)[C@H](CCCCN)NC(=O)[C@H](Cc1c[nH]c2ccccc12)NC(=O)[C@H](CC(C)C)NC(=O)[C@H](CC(=O)O)NC(=O)[C@H](CO)NC(=O)[C@H](Cc1ccccc1)NC(=O)CN1CCSCCC(=O)N[C@@H](CCC(N)=O)C(=O)N[C@@H](CCC(=O)O)C1=O)C(=O)N[C@@H](CO)C(N)=O [teHBS α-helix 1] | 54
